From patent US20100239556A1, “PROMOTING ECM PRODUCTION BY FIBROBLAST CELLS AND/OR PROMOTING MIGRATION OF FIBROBLAST CELLS IN A BIOLOGICAL SYSTEM” (TGR BioScience Pty Ltd., priority 2006, published 2010)

Test system: human foreskin fibroblast cells (HFF)
Test: Soluble collagen I, III and VI in HFF conditioned media (direct coat ELISA)
Format: cell-based
Details: 72 hours
Protocol: Primary human foreskin fibroblast cells (HFF) were seeded into 96 well plates at a density of 1.2×10^4 cells/well and cultured overnight in 10% fetal bovine serum/Dulbecco's minimum essential media (10% FBS/DMEM) at 37° C. and 5% CO2. The cells were then starved overnight in serum free DMEM and triplicate wells treated for six hours with a range of doses of proteins with peroxidase activity; horse radish peroxidase (HRP; 0.2-50 ug/ml), Arthromyces ramosus peroxidase (ARP; 0.2-50 ug/ml), microperoxidase (MP; 8-500 ug/ml), soy bean peroxidase (SBP; 0.2-100 ug/ml) and lactoperoxidase (LP; 10-310 ug/ml) (all obtained from Sigma-Aldrich). At the end of the six hour treatment period, the media was aspirated and replaced with fresh serum free DMEM and the cells cultured for a further 72 hours. […] Briefly, cells were bathed in a 10% Alamar Blue/phosphate-buffered saline (PBS) solution for 30-60 minutes and fluorescence measured at wavelengths of 485 nm excitation and 595 nm emission using a Wallac Victor Multilabel HTS counter. Relative fluorescent units (RFU) for each sample were normalized to control wells (DMEM only treated cells) and data expressed as mean±standard error of the mean (sem) for triplicate wells. […]

recombinant ascorbate peroxidase [APX]
increase in collagen I production (5 μg/ml): 1.4 fold
increase in collagen I production (175 μg/ml): 3.9 fold
